The source of these data is ChEMBL document CHEMBL5528082 (J Med Chem, 2024).

A short description of this experiment: Selectivity ratio of IC50 for human DHFR to IC50 for Staphylococcus aureus DHFR expressed in Escherichia coli BL21 (DE3) using DHF as substrate.

With `COc1cc(C(C)C)c(Oc2cnc(N)nc2N)cc1-c1ccc(C(C)C)cc1`, the Ratio IC50 stood at 1610.
The result for `CC(C)c1cc(OCC2CC2)c(I)cc1Oc1cnc(N)nc1N` reads 4320.
